# Experimental data as given in PubChem BioAssay AID739 (SRMLSC, 2007).
# The list shows a part of the results, in another mix than the full data. Some tests of the compounds listed are not included; inactive here does not mean inactive elsewhere. Activity calls are given as the source filed them. Rule as the data show it: active = inhibition above about 30%; inactive = the rest.
# Test: phenotypic screen on post-Golgi transport, primary screen (AID 739);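 also: yeast cells grown in 1536-well plates; yeast grown about 18 h at 30C before absorbance read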
# Conditions: post-Golgi transport phenotypic cell assay; at 10 µM; active compounds read high
row,SMILES,inhibition
1,CN(C)c1cccc(C(=O)NCC2(N(C)C)CCCCC2)c1,inactive: -3.26%
2,O=C(OC1CN2CCC1CC2)C(CO)(c1ccccc1)c1ccccc1 (stereo not drawn),inactive: -0.46%
3,CC(C)N1C(=O)CC2(CCN(CCOC(=O)C(O)(c3ccccc3)c3ccccc3)CC2)C1=O,inactive: -2%
